We go through 1 molecule from patent US20150025077A1, “GGA AND GGA DERIVATIVES COMPOSITIONS THEREOF AND METHODS FOR TREATING NEURODEGENERATIVE DISEASES INCLUDING PARALYSIS INCLUDING THEM” (COYOTE PHARMACEUTICALS, INC., priority 2012, published 2015).

Series [1] is described as follows: Blood tests (chemistry, hematology) in Sod1 mutant and wild type mice.
For series [2], the system named is Sod1 mutant mice. It counts as in vivo. The conditions noted are these: CNS-102 12 mg/kg or Riluzole 8 mg/kg daily oral, vs vehicle. The text has this:
Values represent means±SEMs.
Subjects were weighed and tested for Grip Strength, and assigned Clinical and Neurological scores three times a week beginning at P90 and five times a week beginning at P100. The table below summarizes the experimental design of the study.
The grip strength test assesses motor function and control of the fore- and hindpaws. Mice were allowed to grab the bars on the Chatillon DFIS-10 digital force gauge (Largo, Fla.), while being gently pulled parallel away from the bars by the tail. The maximum force measured prior to release of the subject's paw from the bar was recorded.
Animals were scored using the scoring system tabulated below.

In the case of `Nc1nc2ccc(OC(F)(F)F)cc2s1` [Riluzole, reference compound], the ALBUMIN is 2.7 mg/dL in series [1] (CNS-102 12 mg/kg or Riluzole 8 mg/kg daily oral (Example 26 table)) and 2700 mg/dL in series [1] (CNS-102 12 mg/kg or Riluzole 8 mg/kg daily oral, P100). Moreover, the “clinical and neuroscore testing” value in series [2] is “tended to outperform group D”.
